Data taken from patent US6635432B1, “Peptide potentiation of acid-sensory ion channel in pain” (University of Iowa Research Foundation, priority 2000, dated 2003).

Amino acid sequences for entries named in this document (tags omitted). A change or cut given only in a name is not applied to a line headed by its entry.
UniProt Q25011: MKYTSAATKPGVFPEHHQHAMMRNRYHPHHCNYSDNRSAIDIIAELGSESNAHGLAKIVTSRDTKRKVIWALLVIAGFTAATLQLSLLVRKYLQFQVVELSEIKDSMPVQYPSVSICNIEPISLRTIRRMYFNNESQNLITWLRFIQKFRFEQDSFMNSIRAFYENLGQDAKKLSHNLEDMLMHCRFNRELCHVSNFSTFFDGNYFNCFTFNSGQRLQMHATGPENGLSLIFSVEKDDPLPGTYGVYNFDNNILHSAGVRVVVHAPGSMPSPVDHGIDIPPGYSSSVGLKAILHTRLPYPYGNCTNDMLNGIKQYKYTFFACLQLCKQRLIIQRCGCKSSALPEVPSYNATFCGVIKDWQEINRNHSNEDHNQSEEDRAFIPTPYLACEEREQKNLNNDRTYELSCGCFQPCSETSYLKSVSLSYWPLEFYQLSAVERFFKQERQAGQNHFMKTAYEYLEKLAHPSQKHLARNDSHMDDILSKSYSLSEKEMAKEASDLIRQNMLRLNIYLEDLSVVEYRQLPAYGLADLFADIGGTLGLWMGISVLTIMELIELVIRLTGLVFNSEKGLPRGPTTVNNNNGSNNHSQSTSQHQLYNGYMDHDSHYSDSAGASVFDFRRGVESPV

How the values were obtained:
[1] = tested on: proton-gated currents in cultured rat DRG neurons; test: Whole-cell patch-clamp of proton-gated currents in cultured DRG neurons; type: cell-based
Procedure: Rat DRG neurons were cultured from Norway rats as described in Benson et al. (1999)(Benson, C. J., Eckert, S. P., and McCleskey, E. W. (1999). Acid-evoked currents in cardiac sensory neurons: A possible mediator of myocardial ischemic sensation. Circulation Research 84, 921-928). Cells were allowed to incubate overnight at room temperature and studies were done 1 to 2 days after isolation.
During whole-cell patch-clamping of DRG neurons and transfected HEK-293T cells, the cells were bathed with an extracellular solution that contained, in mM: 128 NaCl, 5 MgCl2, 1.8 CaCl2, 5.4 KCl, 5.55 glucose, 20 HEPES, pH 7.5 or 5. The pipette solution contained, in mM: 120 KCl, 10 NaCl, 2 MgCl2, 5 EGTA, 10 HEPES. Perfusion of cells with different solutions was done by placing the appropriate outlet in front of the cell. Data were recorded with an AXOPATCH 200 (Axon Instruments, Foster City, Calif.) and stored on a digital tape recorder. Digitization was executed by acquiring data at 400 Hz using pClamp6 (Axon Instruments, Foster City, Calif.).
Whole-cell patch-clamp recordings were used to investigate the effect of FMRFamide on proton-gated currents in cultured rat DRG neurons. […]

water-injected oocytes = test: Control, water-injected Xenopus oocytes; type: cell-based, Xenopus laevis; settings: pH and FMRFamide in any combination
Procedure: (§1) Expression of the cDNA constructs in Xenopus oocytes was accomplished by injection of plasmid DNA into the nucleus of defolliculated albino Xenopus laevis oocytes (Nasco, Fort Atkinson, Wis.) as described previously (Adams, C. M., Snyder, P. M., Price, M. P., and Welsh, M. J. (1998). Protons activate brain Na^+ channel 1 by inducing a conformational change that exposes a residue associated with neurodegeneration. J Biol Chem 273, 30204-30207). Plasmids were injected at concentrations of 100 ng/μl for most experiments. Oocytes were incubated in modified Barth's solution at 18° C. for 12-26 hr after injection. Cells injected with DRASIC were allowed to incubate for 24-48 hr before analysis.
Whole-cell currents in oocytes were measured using a two-electrode voltage-clamp as previously described (Adams, et al. (1998)). Oocytes were bathed in frog Ringers solution containing, in mM: 116 NaCl, LiCl or KCl, 0.4 CaCl2, MgCl2, 5 4-(2-hydroxyethyl)-1-piperazineethanesulfonic acid (HEPES), pH 7.4. Acidic solutions were buffered with 5 mM 2-(4-morpholino)-ethanesulfonic acid (MES) instead of HEPES. Membrane voltage was held at −60 mV unless otherwise noted. Most peptides and naloxone were obtained from Sigma Chemical Co. (St. Louis, Mont.) and were added to the extracellular solution. The peptide FRRFamide was synthesized by Research Genetics (Huntsville, Ala.).

ASICβ = target: T1, ASICβ (Rattus norvegicus, UniProt P55926); test: Two-electrode voltage-clamp of Xenopus oocytes expressing ASICβ; type: cell-based
T1 construct: expressed in transfected cells; host or cells: Xenopus laevis oocytes (nuclear injection of pMT3 plasmid)
T1 sequence (P55926 1-559 isoform P55926-3): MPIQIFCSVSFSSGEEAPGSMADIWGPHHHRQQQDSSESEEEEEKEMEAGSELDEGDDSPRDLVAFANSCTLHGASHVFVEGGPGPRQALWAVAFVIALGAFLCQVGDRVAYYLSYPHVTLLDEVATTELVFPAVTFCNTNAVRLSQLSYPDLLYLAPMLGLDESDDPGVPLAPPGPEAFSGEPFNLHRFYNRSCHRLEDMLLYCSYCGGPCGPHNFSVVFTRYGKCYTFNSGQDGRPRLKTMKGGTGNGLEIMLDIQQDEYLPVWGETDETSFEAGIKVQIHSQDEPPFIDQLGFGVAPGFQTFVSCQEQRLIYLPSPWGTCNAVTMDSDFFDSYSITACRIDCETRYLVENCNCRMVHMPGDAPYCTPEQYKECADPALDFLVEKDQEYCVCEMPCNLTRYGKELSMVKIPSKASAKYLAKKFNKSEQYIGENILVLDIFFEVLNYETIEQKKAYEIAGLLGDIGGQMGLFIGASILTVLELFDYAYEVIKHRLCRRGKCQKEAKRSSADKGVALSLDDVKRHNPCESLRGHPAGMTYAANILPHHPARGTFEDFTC
Text: (§2) Human ASICα was cloned from brain polyA RNA. Rat ASICβ and mouse DRASIC were cloned from DRG RNA. Human BNC1 was cloned as described in Price et al. (1996)(Price, M. P., Snyder, P. M., and Welsh, M. J. (1996). Cloning and expression of a novel human brain Na^+ channel. J Biol Chem 271, 7879-7882). Constructs were cloned into pMT3 for expression. The validity of the constructs was confirmed by DNA sequencing.
as §1
(§3) Whole-cell currents in oocytes were measured using a two-electrode voltage-clamp as previously described (Adams, et al. (1998)). […]

FaNaCh = FaNaCh (Cornu aspersum, UniProt Q25011); settings: read-out: FMRFamide half-maximal concentration reported for FaNaCh; Lingueglia, et al. (1995); cited from earlier work
BNC1 = target: T2, BNC1 (Homo sapiens, UniProt Q16515); test: Two-electrode voltage-clamp of Xenopus oocytes expressing BNC1; type: cell-based; settings: pH 5
T2 construct: expressed in transfected cells; host or cells: Xenopus laevis oocytes (nuclear injection of pMT3 plasmid)
T2 sequence (Q16515 1-512): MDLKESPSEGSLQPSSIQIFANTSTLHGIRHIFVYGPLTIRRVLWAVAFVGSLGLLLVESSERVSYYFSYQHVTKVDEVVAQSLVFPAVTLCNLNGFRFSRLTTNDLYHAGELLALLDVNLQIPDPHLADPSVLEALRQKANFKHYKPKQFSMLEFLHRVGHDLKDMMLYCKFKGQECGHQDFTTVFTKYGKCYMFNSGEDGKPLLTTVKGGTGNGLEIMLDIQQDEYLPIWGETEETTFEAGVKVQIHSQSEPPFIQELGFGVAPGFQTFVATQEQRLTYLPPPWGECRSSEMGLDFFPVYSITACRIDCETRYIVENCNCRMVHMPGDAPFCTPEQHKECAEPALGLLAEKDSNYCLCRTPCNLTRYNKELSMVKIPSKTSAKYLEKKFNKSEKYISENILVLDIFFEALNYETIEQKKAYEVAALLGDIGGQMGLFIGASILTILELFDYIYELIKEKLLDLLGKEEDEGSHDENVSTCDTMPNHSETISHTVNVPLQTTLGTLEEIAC
Text: as §2, §1, §3

With `CSCC[C@H](NC(=O)[C@@H](N)Cc1ccccc1)C(=O)N[C@@H](CCCNC(=N)N)C(=O)N[C@@H](Cc1ccccc1)C(N)=O` [FMRFamide, Phe-Met-Arg-Phe amide] the “effect on inactivation of proton-gated current and sustained current” value ([1]; pH 5, FMRFamide 50-100 μM, neuropeptide FF 50 μM) was “the inactivation of proton-dependent current slowed, and in many neurons, there was a sustained current in the continued presence of acid”, the “current generated by agent added alone” value ([1]; without acidification) was “generated no response” and the “current in control, water-injected oocytes” value (water-injected oocytes) was “Neither pH nor FMRFamide in any combination produced current”. For the same compound, the “effect on H+-gated ASICβ current (inactivation, sustained current)” value (ASICβ; pH 5, peptide 50 μM) was “slowing of inactivation and the appearance of a sustained current at pH 5”, the “effect of peptide alone on channel” value (ASICβ; pH 7.4) was “had no effect on either channel” and the EC50 (FaNaCh) was 2 µM. The “effect on acid-gated BNC1 currents” value (BNC1) was “not discernibly altered”.
